Data as given in ChEMBL document CHEMBL1140447, “Synthesis and antimuscarinic properties of quinuclidin-3-yl 1,2,3,4-tetrahydroisoquinoline-2-carboxylate derivatives as novel muscarinic receptor antagonists” (J Med Chem, 2005).

Protein sequences, listed by entry. Tags and fused reporters are not part of them.
UniProt P08483, whole entry, looked up: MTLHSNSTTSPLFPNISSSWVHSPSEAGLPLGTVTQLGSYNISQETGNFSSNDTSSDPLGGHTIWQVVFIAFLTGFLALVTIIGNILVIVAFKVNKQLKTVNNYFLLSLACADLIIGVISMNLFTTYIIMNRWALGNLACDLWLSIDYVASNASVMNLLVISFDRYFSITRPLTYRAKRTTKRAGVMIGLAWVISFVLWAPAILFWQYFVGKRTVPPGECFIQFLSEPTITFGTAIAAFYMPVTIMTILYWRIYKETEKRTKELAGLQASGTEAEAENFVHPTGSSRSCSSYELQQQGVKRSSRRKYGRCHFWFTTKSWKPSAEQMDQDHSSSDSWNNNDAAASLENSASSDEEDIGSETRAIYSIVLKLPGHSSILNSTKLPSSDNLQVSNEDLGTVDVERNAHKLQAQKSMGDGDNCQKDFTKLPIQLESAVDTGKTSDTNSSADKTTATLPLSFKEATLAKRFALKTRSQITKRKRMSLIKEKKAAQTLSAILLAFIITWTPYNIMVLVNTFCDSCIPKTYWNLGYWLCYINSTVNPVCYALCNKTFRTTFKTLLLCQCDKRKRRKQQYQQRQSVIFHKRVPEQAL
UniProt P10980, whole entry, looked up: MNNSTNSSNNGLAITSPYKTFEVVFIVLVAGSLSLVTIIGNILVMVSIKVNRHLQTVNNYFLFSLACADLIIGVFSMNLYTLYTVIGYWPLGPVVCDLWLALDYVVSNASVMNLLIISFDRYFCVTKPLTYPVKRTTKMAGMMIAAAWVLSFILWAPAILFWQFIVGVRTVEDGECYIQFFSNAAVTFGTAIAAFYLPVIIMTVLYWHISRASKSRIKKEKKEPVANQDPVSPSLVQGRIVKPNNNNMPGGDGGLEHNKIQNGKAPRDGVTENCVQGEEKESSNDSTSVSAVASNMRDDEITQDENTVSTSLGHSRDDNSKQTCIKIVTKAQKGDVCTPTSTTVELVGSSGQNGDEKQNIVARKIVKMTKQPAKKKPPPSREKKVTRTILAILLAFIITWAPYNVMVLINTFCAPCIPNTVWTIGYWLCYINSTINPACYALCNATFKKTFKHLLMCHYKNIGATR

Target: Muscarinic receptor M2 and M3 (Rattus norvegicus) (UniProt P08483+P10980)
Experiment: Selectivity index as binding affinity for M2 and M3 receptors
Type: protein assay

## O=C(O[C@H]1CN2CCC1CC2)C1CCc2ccccc2N1c1ccccc1 (stereo partly specified)
  Selectivity index: 5.4
